By UniProt entry, the sequences of proteins in these tests, tags left out. Residues count along the entry.
UniProt P36888, 27-993 limits assumed: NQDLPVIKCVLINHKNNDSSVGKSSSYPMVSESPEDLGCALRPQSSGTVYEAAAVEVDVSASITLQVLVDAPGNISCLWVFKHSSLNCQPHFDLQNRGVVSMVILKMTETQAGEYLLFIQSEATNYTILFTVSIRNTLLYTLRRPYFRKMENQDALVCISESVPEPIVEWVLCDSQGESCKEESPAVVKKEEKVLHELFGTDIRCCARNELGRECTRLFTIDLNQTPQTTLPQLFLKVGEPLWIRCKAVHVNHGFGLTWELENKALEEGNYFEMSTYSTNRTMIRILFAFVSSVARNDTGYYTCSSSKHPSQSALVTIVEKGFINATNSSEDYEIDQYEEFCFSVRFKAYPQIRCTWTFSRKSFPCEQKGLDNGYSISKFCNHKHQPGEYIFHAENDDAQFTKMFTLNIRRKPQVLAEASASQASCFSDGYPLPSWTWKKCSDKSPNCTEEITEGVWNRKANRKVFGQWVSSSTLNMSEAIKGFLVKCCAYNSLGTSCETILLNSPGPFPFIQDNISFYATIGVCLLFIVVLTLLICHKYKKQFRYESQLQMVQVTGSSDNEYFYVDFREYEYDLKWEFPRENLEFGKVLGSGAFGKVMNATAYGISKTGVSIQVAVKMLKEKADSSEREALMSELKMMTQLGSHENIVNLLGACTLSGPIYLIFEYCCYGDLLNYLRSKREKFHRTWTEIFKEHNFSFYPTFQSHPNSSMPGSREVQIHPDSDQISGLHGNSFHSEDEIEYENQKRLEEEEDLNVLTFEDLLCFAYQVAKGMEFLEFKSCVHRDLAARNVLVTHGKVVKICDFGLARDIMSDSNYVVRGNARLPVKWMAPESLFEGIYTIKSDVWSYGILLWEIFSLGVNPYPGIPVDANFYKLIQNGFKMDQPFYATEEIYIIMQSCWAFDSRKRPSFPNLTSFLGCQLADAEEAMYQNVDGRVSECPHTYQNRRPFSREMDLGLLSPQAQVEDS

According to PMC6781469 (Journal of Enzyme Inhibition and Medicinal Chemistry, 2019):

Molecular target: FLT3(h) (Homo sapiens, UniProt P36888)
Experiment: Reaction Biology Kinase HotSpot radiometric kinase assay, FLT3
Conditions: enzymatic activity, Table 1; NA not defined

Cc1oncc1C(=O)Nc1ccc2[nH]c(-c3cnn(-c4ccccc4)c3C(F)(F)F)nc2c1
IC50 (µM) FLT3: lost activity
